Test results published in patent EP4834881A1, “QUINOLONE COMPOUNDS AND USE THEREOF” (dated 2026).
Marks after values point to notes of the source that are not given here.

The chains behind the UniProt entries cited, without tags or fusion partners.
UniProt Q96LB1, whole entry: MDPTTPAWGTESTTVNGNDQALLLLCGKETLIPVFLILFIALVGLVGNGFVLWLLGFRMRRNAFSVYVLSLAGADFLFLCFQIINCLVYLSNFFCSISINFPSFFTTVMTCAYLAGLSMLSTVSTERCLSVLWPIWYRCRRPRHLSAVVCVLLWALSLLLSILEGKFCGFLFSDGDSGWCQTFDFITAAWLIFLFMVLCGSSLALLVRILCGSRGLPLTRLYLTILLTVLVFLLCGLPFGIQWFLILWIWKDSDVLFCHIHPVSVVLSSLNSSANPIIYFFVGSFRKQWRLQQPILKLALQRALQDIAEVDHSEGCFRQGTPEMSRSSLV

How the values were obtained:
BALB/c mice [1] = assay: Psoriasis model: imiquimod cream on mouse back, PASI score; details: 4mg/g Topical application, once daily, mean ± SEM
Procedure: (§1) Experimental animals: BALB/c mice, from Guangdong Vital River Laboratory Animal Technology Co., Ltd.
The clinical severity of psoriasis was assessed using the Psoriasis Area and Severity Index (PASI) score. The PASI scoring criteria for mice are as follows:
The hair on the back of the mice was shaved, and the application area was marked with a marker pen. Imiquimod cream (Supplier: Sichuan Mingxin Pharmaceutical, Lot No.: 24054002) was applied to the back of the mice for several consecutive days to establish a mouse model of psoriasis. Before daily application, the residual cream was removed using pure water.
Administration was initiated on the day of grouping, which was designated as D1, and was performed once daily for 8 consecutive days. The normal control group and the model control group were administered with vehicle alone under the same conditions. Mice were scored according to the PASI (Psoriasis area and severity index). The administration regimen for the mouse psoriasis model was as follows: […]

human MRGPRX2 = human MRGPRX2 (Homo sapiens, UniProt Q96LB1); assay: In vitro target binding assay: BRET between MRGPRX2-Nluc and Venus-β-arrestin1 in transfected HEK-293T cells, antagonist mode against agonist R-ZINC-3573 (EC80); details: antagonism of agonist R-ZINC-3573 at EC80, net BRET
Excerpt: Bioluminescence Resonance Energy Transfer (BRET) is an important biophysical technique for monitoring molecular interactions, and has been widely used to study protein-protein interactions in living cells. This technique requires the relevant proteins to be linked to an energy donor (such as luciferase) and an acceptor (such as a fluorescent protein). When a relevant drug molecule interacts with the protein, the protein structure alters, causing a change in the distance between the energy donor and the energy acceptor. The luminescence energy induced by the chemical reaction is transferred to the corresponding acceptor, resulting in increased acceptor emission, and generating a BRET signal. In this work, a DNA-synthesized target human MRGPRX2 and a donor luciferase Nluc (NanoLuc®Promega) (Supplier: Beijing Tsingke, Lot No.: SZ0171228-1), as well as an acceptor fluorescent protein Venus and the relevant test protein, namely human β-arrestin1 (ARRB1) (Supplier: Guangzhou Dahong Biotechnology, Lot No. HY22694-4396), were utilized, and were inserted into the eukaryotic expression vector plasmid pcDNA3.1(+) (Supplier: Qiyun Bio, Lot No.: QY2310) as fusion genes via a Linker sequence (GGSG). The cell line selected for the experiment was human embryonic kidney cells HEK-293T. The human embryonic kidney cell line HEK-293T was routinely cultured in 10 cm cell culture dishes using complete culture medium consisting of high-glucose DMEM medium supplemented with 10% (V/V) fetal bovine serum. Cells were seeded at 2×10^6 cells/10 cm dish on the first day of culture, and passaged every 72 h with the same number of cells. One day prior to transfection, cells were resuspended, counted, and seeded at a density of 2×10^6 cells/6 cm dish or 4×10^6 cells/10 cm dish. Transfection was carried out 16-24 h after seeding. Plasmids constructed with the fusion protein gene were transfected into the expression cell line, and the transfected cells were cultured under appropriate conditions for a period of time to allow sufficient expression of the fusion proteins. Transfection was performed by encapsulating plasmid DNA with PEI reagent, and the encapsulation process should to be carried out in Opti-MEM medium. The ratio of plasmid, PEI (Supplier: Yeasen Biotechnology, Lot No.: WP5430010), and Opti-MEM (Supplier: Gibco, Lot No.: 2883564) was 1:4:14 (W: W: V). The encapsulated plasmid was added to an appropriate amount of complete culture medium, amd gently mixed, which was then used to replace the existing culture medium of the previously plated cells. Cells were harvested 24 h after transfection. Subsequently, cells were resuspended using HBSS (Source: Biosharp, Lot No.: 24179687) and counted with a cell counter. The cells were diluted to a density of (3~5) ×10^5 cells/mL, and then seeded into a flat-bottom white 96-well microplate at 100 µ L/well, resulting in (3~5) ×10^4 cells per well. In each well, 10 µ L of antagonist compounds diluted with HBSS a different concentrations were added firstly, then the agonist compound at a specific concentration (EC80) was added. After reacting for 2 min, the substrate Furimazine (Supplier: TargetMol, Lot No.: 362434) at a final concentration of 10 µM was added. After reacting for another 2 min, the 96-well plate was placed in a PHERAstar FSX microplate reader (Supplier: BMG Labtech) to simultaneously measure the readings at wavelengths of 440 nm and 530 nm. Based on the fluorescence readings at 440 nm and 530 nm, the Ratio and net BRET were calculated. Ratio = Em530 nm / Em440 nm, and net BRET = Ratio co-transfection - Ratio single-transfection. The calculated net BRET values were inputted into GraphPad Prism 9, and curve fitting via nonlinear regression (four-parameter equation) and IC50 calculation were performed.

BALB/c mice [2] = assay: Urticaria model: anti-dinitrophenyl antibody sensitization and dinitrofluorobenzene challenge; number of wheals, serum IgE and histamine (ELISA); details: once daily, 6 days, mean ± SEM
Procedure: Experimental animals: BALB/c mice, from Hangzhou Ziyuan Laboratory Animal Technology Co., Ltd
After random grouping, the back of the mice was shaved in advance, with a shaving area of about 2 cm × 2 cm. Except for the normal control group, mice in the remaining groups were sensitized via tail vein injection of an anti-dinitrophenyl monoclonal antibody (Supplier: Sigma-Aldrich, Lot No.: 0000241402) (0.2 ng/mL) at a dose of 0.5 mL per mouse. After 24 h, the mice in each sensitization modeling group were challenged by topically applying 50 µL of 0.15% dinitrofluorobenzene (Supplier: Shanghai Macklin, Lot No.: C14969320) to the dorsal side of both ears. The normal control group was injected and topically applied with normal saline under the same conditions.
The administration regimen for the mouse urticaria model was as follows (the normal control group and the model control group were administered with vehicle alone under the same conditions) (once daily):
Mouse IgE ELISA detection kit: purchased from Shanghai Enzyme-linked Biotechnology Co., Ltd., Lot No.: ml1037602.
Mouse histamine ELISA detection kit: purchased from Shanghai Enzyme-linked Biotechnology Co., Ltd., Lot No.: ml1001877.
Microplate reader, manufacturer BioTek, model: Epoch.

C57BL/6 mice = assay: Inflammatory bowel disease model: 3% DSS drinking water, DAI score; details: mean ± SEM
Procedure: Experimental animals: C57BL/6 mice, from Guangdong Vital River Laboratory Animal Technology Co., Ltd.
C57BL/6 mice were used. 3% DSS (Dextran Sulfate Sodium) (Supplier: MPBIO, Lot No.: YD11024) in water was prepared as drinking water for the mice.
During the experiment, the animals were weighed at a fixed time daily, and their status (including feces, mortality) was observed. The efficacy was evaluated by the DAI score. The details of the DAI scoring criteria are as follows: 0 point for normal stool, 1 point for soft but formed stool, 2 points for soft stool, 3 points for soft and wet stool, 4 points for loose stool; 0-1 point for no occult blood, 2 points for occult blood positive, 3 points for visible blood in stool, 4 points for severe fecal blood; 0 point for no weight loss or weight gain, 1 point for weight loss of 1%-5%, 2 points for weight loss of 6%-10%, 3 points for weight loss of 11%-15%, 4 points for weight loss > 15%. The sum of the scores for 3 items is the total DAI score, and the weighing and scoring were carried out every other day. […] The DAI scores are shown in Table 5, and the data are presented as mean + standard error of the mean (SEM): Table 5

BALB/c mice [3] = assay: Atopic dermatitis model: MC903 (calcipotriol) on right ear, ear thickness; details: 50 mg/kg BID p.o., mean ± SEM
Procedure: as §1
MC903 (calcipotriol) (Supplier: TargetMol, Lot No.: 235760) was applied to the right ear of mice, once a day, for 14 consecutive days.
The animals were randomly divided into 6 groups before induction on D1. The model control group was administered with vehicle alone under the same conditions. Administration was carried out according to the following groups:
During the experiment period, the thickness of the right ear of the mice was measured. […] The data are presented as mean ± standard error of the mean (SEM).

BALB/c mice [4] = assay: Asthma model: IgE assay (ELISA) in peripheral blood, alveolar lavage fluid and lung tissue; details: 5mg/kg PO, 7 days, mean ± SEM
Procedure: as §1
(§2) Modeling was initiaed on the day of grouping, which was designated as M1. Except for the normal group, mice in all modeling groups were intraperitoneally injected with a sensitization solution of (500 µg OVA (Ovalbumin) (Supplier: Shanghai Macklin, Lot No.: C16255388) mixed with 5 mg aluminum hydroxide/mL) per mouse, while the normal control group was given an equal volume of sterile PBS solution. The injection cycle was M1, M7, and M14. Starting from M21, challenge was carried out by aerosolization once daily for 7 consecutive days. The challenge solution was a 20 mg/mL OVA (Ovalbumin) solution, and each aerosolization challenge lasted for 30 min. The normal control group was not subjected to aerosolization.
(§3) Administration was initiated on day M21, which was designated as D1, and was performed once daily for 7 consecutive days. The normal control group and the model control group were administered with vehicle alone under the same conditions. The administration regimen for the mouse asthma model was as follows:
Prior to necropsy, blood was collected from the eyeball. The collected mouse blood was then centrifuged at 1800 r/min at 4 °C for 15 min, and the supernatant serum was aliquoted and stored at -80 °C for testing. At the same time, alveolar lavage fluid and lung tissues were collected. The IgE levels in the above three samples was detected using an ELISA method (Supplier: Shanghai Enzyme-linked Biotechnology Co., Ltd., Lot No.: ml1037602). […] The results of the IgE levels in peripheral blood, lavage fluid, and lung tissue of each group are shown in Table 9, and the data are presented as mean ± standard error of the mean (SEM).

BALB/c mice [5] = assay: Asthma model: OVA sensitization and aerosol challenge, bronchoalveolar lavage fluid (BALF) cell differential count; details: 5mg/kg PO, 7 days, mean ± SEM
Procedure: as §1, §2, §3
The lungs were gently lavaged twice with normal saline to collect BALF. The recovered BALF was stored at 4 °C, and the cell differential count was detected using an automated hematology analyzer (Manufacturer: SYSMEX, Model: XN-1000). During the experiment, the asthma model mice developed typical symptoms, including shortness of breath, and ear and nose scratching, etc. […] The results of the bronchoalveolar lavage fluid cell differential count in each group are shown in Table 8, and the data are presented as mean ± standard error of the mean (SEM).

For `CCCCCNS(=O)(=O)c1ccc(-c2c(F)cc3c(=O)c(C(=O)O)cn(C4CC4)c3c2OC)cc1`, which PASI score (BALB/c mice [1]; D1) is on record?
The PASI score was 0.

What about the PASI score (BALB/c mice [1]; D2) of the same compound?
Its PASI score is 0.5±0.3.

What about the PASI score (BALB/c mice [1]; D3) of the same compound?
The PASI score was 1.6±0.3.

And the PASI score (BALB/c mice [1]; D4)?
The PASI score was 3.0±0.4.

What about the PASI score (BALB/c mice [1]; D5) of the same compound?
The PASI score was 3.7±0.3.

And the PASI score (BALB/c mice [1]; D6)?
Its PASI score is 4.6 ·.

And the PASI score (BALB/c mice [1]; D7)?
The PASI score was 5.5 ·.

What about the PASI score (BALB/c mice [1]; D8) of the same compound?
Its PASI score is 6.7 ·.

What about the IC50 (human MRGPRX2) of the same compound?
Its IC50 is 100 to 1000 nM.

With `CCCCCCCNS(=O)(=O)c1ccc(-c2cc3c(cc2F)c(=O)c(C(=O)O)cn3C2CC2)cc1` as the compound, how does the “Histamine Level” value (BALB/c mice [2]; 4mg/kg Topical application) read?
The value was 6.4 ± 1.0 ng/mL.

And the “IgE Level” value (BALB/c mice [2]; 4mg/kg Topical application)?
Its value is 14.8 ± 1.0 µg/mL.

What about the “Histamine Level” value (BALB/c mice [2]; 25mg/kg Oral) of the same compound?
The value was 6.9 ± 1.0 ng/mL.

What about the “IgE Level” value (BALB/c mice [2]; 25mg/kg Oral) of the same compound?
Its value is 17.3 ± 1.5 µg/mL.

And the DAI score (C57BL/6 mice; D1, 20mg/kg QD p.o.)?
Its DAI score is 0.00±0.00.

And the DAI score (C57BL/6 mice; D2, 20mg/kg QD p.o.)?
Its DAI score is 0.8±1.0.

And the DAI score (C57BL/6 mice; D3, 20mg/kg QD p.o.)?
Its DAI score is 0.9±0.6.

And the DAI score (C57BL/6 mice; D4, 20mg/kg QD p.o.)?
The DAI score was 2.4±0.8.

What about the IC50 (human MRGPRX2) of the same compound?
Its IC50 is 100 to 1000 nM.

And the “Right Ear Thickness of Mice” value (BALB/c mice [3]; D2)?
Its value is 0.19±0.04 mm.

And the “Right Ear Thickness of Mice” value (BALB/c mice [3]; D4)?
Its value is 0.28 ± 0.04 mm.

And the “Right Ear Thickness of Mice” value (BALB/c mice [3]; D6)?
Its value is 0.35 ± 0.04 mm.

And the “Right Ear Thickness of Mice” value (BALB/c mice [3]; D8)?
The value was 0.48 ± 0.04 mm.

What about the “Right Ear Thickness of Mice” value (BALB/c mice [3]; D10) of the same compound?
Its value is 0.52 ± 0.04 mm.

And the “Right Ear Thickness of Mice” value (BALB/c mice [3]; D12)?
The value was 0.54 ± 0.04 mm.

What about the “Right Ear Thickness of Mice” value (BALB/c mice [3]; D14) of the same compound?
The value was 0.59 ± 0.03 mm.

Which “Alveolar Lavage Fluid IgE Concentration” value (BALB/c mice [4]; alveolar lavage fluid) does the source give for `COc1c(-c2ccc(C(=O)NCC(C)(C)O)c(N)c2)c(F)cc2c(=O)c(C(=O)O)cn(C3CC3)c12` here?
The value was 12.1 ± 1.8 ng/mL.

And the “Lung Tissue IgE Concentration” value (BALB/c mice [4]; lung tissue)?
The value was 37.2 ± 3.5 ng/mL.

What about the “Peripheral Blood IgE Concentration” value (BALB/c mice [4]; serum) of the same compound?
Its value is 14.7 ± 4.3 ng/mL.

What about the “Eosinophil Count” value (BALB/c mice [5]) of the same compound?
The value was 2.0±0.5** 10^9/L.

And the “Leukocyte Count WBC” value (BALB/c mice [5])?
Its value is 2.5 ±0.5** 10^9/L.

And the “Lymphocyte Count” value (BALB/c mice [5])?
The value was 0.2±0.06* 10^9/L.

And the “Monocyte Count” value (BALB/c mice [5])?
The value was 0.1±0.02* 10^9/L.

And the “Neutrophil Count” value (BALB/c mice [5])?
Its value is 0.2±0.04** 10^9/L.
